Test results taken from paper PMC5298233, “Substrate-analogous inhibitors exert antimalarial action by targeting the Plasmodium lactate transporter PfFNT at nanomolar scale” (PLoS Pathogens, 2017).

Target: T1, rat MCT1 (Rattus norvegicus, UniProt P53987)
T1 sequence (P53987 1-494): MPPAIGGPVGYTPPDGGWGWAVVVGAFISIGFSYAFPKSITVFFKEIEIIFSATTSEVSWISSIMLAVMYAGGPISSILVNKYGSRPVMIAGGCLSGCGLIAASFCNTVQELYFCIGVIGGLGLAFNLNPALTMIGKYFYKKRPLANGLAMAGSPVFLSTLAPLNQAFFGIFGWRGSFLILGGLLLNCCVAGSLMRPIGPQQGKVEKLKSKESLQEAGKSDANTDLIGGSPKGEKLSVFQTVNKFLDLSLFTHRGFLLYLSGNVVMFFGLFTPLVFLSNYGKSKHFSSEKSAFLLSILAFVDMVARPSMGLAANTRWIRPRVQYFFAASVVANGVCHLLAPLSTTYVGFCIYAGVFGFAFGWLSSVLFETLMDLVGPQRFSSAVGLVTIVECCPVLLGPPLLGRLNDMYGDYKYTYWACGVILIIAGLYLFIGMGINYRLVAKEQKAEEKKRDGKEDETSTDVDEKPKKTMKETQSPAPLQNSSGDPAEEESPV
Assay: L-lactate transport inhibition of MCT1 expressed in yeast
Assay type: cell-based

## COc1ccc2c(c1)OC(O)(C(F)(F)C(F)(F)F)CC2=O (stereo not shown) [MMV007839]
  lower efficiency on MCT1 than on PfFNT: 300 times
